From patent US20250221987A1, “PIPERAZINO RING-CONTAINING DERIVATIVE, PHARMACEUTICALLY ACCEPTABLE SALT THEREOF, PREPARATION METHOD THEREFOR, AND APPLICATION THEREOF” (ACERAND THERAPEUTICS (HONG KONG) LIMITED, priority 2022, published 2025)

Test system: MDA-MB-436 cells
Test: Proliferation activity assay of MDA-MB-436 cells (CellTiter-Glo)
Format: cell-based
Conditions: 4000 cells seeded, 6 days incubation; read-out: MDA-MB-436 proliferation inhibition IC50
Experimental: Complete culture medium was prepared and mixed thoroughly. The cells were resuscitated and cultured for about two passages to select a cell line in good growth condition. The cell culture flask was removed from the incubator. Cell adherence: the culture medium was aspirated, then the cells were washed once with trypsin to discard the waste liquid, and 3 mL of fresh trypsin was added to the culture flask for digestion. When the cells were loose to be detached from the wall of the flask, 8 mL of complete culture medium was added thereto to stop trypsin digestion and mixed gently. The cell suspension was transferred to a centrifuge tube with a pipette and centrifuged at 1000 rpm for 5 minutes. The supernatant was discarded. An appropriate volume of culture medium was added to the centrifuge tube and pipetted gently to resuspend the cells evenly. The cells were counted using a Vi-Cell XR cell counter. The cell suspension was adjusted to an appropriate concentration. The cell suspension was added to a 96-well plate at 100 µL/well. The details such as cell name, seeding density, and date were labelled, and the culture plate was placed in a CO2 incubator overnight.
The compound to be tested was prepared into a 10 mM stock solution, which was aliquoted and stored in a −20° C. freezer. The compound solution was added to a 96-well plate using HPD300. The plate was incubated in a CO2 incubator for a total of 6 days.
CellTiter-Glo buffer was melted at room temperature. The lyophilized CellTiter-Glo substrate was equilibrated to room temperature. CellTiter-Glo buffer was added to the CellTiter Glo substrate and mixed thoroughly. A cell plate was taken out and equilibrated to room temperature. 100 μL of mixed CellTiter Glo reagent was added to each well, and the mixture was shaken in the dark for 10 minutes, followed by incubation for 20 minutes. The culture plate was placed into an Enspire reading plate, and the luminescence reading results were recorded. […] A pharmacodynamic inhibition rate curve was plotted by using XLFit, and the IC50 value was calculated. […]

SMILES | IC50 [nM]
CNC(=O)c1ccc(N2CCN(Cc3cnc4cc(C5CC5)c(=O)[nH]c4c3)[C@H]3CC[C@H]32)cn1 [Example 16-1] | 5
CNC(=O)c1ccc(N2CCN(Cc3cnc4c(F)c(C)c(=O)[nH]c4c3)[C@@H]3CCC32)cn1 (stereo partly drawn) [Example 41-2] | 5
CNC(=O)c1ccc(N2CCN(Cc3ccc4nc(C(C)(F)F)c(=O)[nH]c4c3)[C@@H]3CCC32)cn1 (stereo partly drawn) [Example 42-2] | 8
